Test results from patent US6949522B2, “β-2′- or 3′-halonucleosides” (Pharmasset, Inc., priority 2001, dated 2005).

Columns and labels:
HepG2 = experiment: Toxicity assay (MTS/MTT dye), HepG2 cells; details: read-out: Cytotoxicity HepG2 IC50; HepG2, three day-incubation (Table 3)
Method: (§1) After a three day-incubation for HepG2, or 5 days for human PBM cells, cell viability and mitochondrial activity were measured in a colorimetric assay using the MTS- or MTT dye method (Promega, Madison, Wis.).

[1] = tested on: mitochondrial cytochrome C oxidase subunit II (COXII) gene; type: cell-based, human; details: HepG2, 10 μM, 7 days; for COXIINrDNA (range) relative to control: COXII DNA normalized to rDNA, 2-ΔΔCt
Description: The Q-RT-PCR technology was also used to evaluate potential mitochondrial γ-DNA polymerase inhibition by the compounds of the present invention in relevant human cells. […] Since active nucleoside compounds in the triphosphate form lack a 3′-OH, thereby stopping virus replication by chain termination, there is a concern that these nucleoside analogues are also substrates for the human DNA polymerase γ, resulting in inhibition of mitochondrial DNA replication and subsequently toxic side effects (11, 19). In an attempt to provide direct quantifiable data on mitochondrial DNA levels intracellular, a Q-PCR technology was designed and relative quantification of COXII DNA levels were calculated using the comparative Ct method. […] Also, in agreement with previous observations, no changes in normalized mitochondrial DNA levels were observed after FIAU and D4T treatment (6, 8, 23).
Low passage number HepG2 cells, obtained from American Tissue Culture Collection (ATCC, Manassas, Va.) were seeded at 5,000 cells/well in collagen-coated 96-well plates. Test compounds were added to the media to obtain a final concentration of 10 μM. On culture day 7, cellular nucleic acids were prepared by using commercially available columns (RNeasy 96 kit, Qiagen). […] The mitochondrial cytochrome C oxidase subunit II (COXII) gene and the β-actin or rRNA gene were amplified from 5 μL with a multiplex Q-PCR protocol using the suitable primers and probes for both target and reference (designed using the Primer Express software, Applied Biosystems); • for COXII. • sense primer 5′-[…]-3′ (Sequence 7); • probe 5′-TET-[…]-TAMRA-3′ (Sequence 8); and • antisense probe 5′-[…]-3′ (Sequence 9); • for exon 3 of β-actin (GenBank E01094): • sense primer 5′-[…]-3′ (Sequence 10); • probe 5′-6FAM-[…]-TAMRA-3′ (Sequnece 11); and • antisense probe 5′-[…]-3′ (Sequence 12).
The rRNA gene primers and probes were purchased from Applied Biosystems. Standard curves using 1-log diluted total HepG2 DNA were linear over more than 5 logs. In addition, efficiencies of target (COXII DNA) and reference (β-actin DNA or rRNA) amplification were approximately equal, because the slope of the ΔCt line (Ct β-actin minus Ct mitochondrial) was less than 0.1 (not shown). Since equal amplification efficiencies were obtained for both genes, the comparative cycle threshold (Ct) method was used to investigate potential inhibition of the mitochondrial DNA polymerase γ. The comparative Ct method uses arithmetic formulas in which the amount of target (COXII gene) is normalized to an endogenous reference (β-actin gene or rRNA gene) and is relative to a calibrator (no drug control at day 7). The arithmetic formula for this approach is given by 2-ΔΔCt (User bulletin # 2, Applied Biosystems).
In order to study the consequences of possible inhibitory effects of these compounds on host DNA polymerases, nuclear and rnitochondrial DNA levels were quantified and compared to no-treatment controls. Cells were incubated for 7 days with 10 μM of each compound, followed by total nucleic acid extractions and multiplex Q-PCR of the rRNA gene and the mitochondrial COXII gene. Nucleic acids from cells exposed to the control compounds were also amplified in multiplex for mitDNA and the β-actin gene. The results are presented in Table 4 using the comparative Ct method.

human PBM cells = experiment: Toxicity assay (MTS/MTT dye), human PBM cells; details: read-out: Cytotoxicity PBM IC50, 5 days incubation
Method: as §1

β-D-2′,3′-didehydro-2′,3.′-dideoxy-3′-fluoro-5-fluoro cytidine [Compound 10-F]
IC50 (HepG2): > 100 µM | COXIINrDNA (range) relative to control [1]: 1.04 (1.34-0.80) | Average ΔCt ± SD COXII DNA [1]: −0.49 ± 0.31 | Average ΔΔCt ± SD COXII-rDNA [1]: −0.05 ± 0.37 | IC50 (human PBM cells): > 100 µM

β-L-2′,3′-didehydro-2′,3.′-dideoxy-3′-fluoro-5-fluoro cytidine [Compound 23-F]
IC50 (HepG2): > 100 µM | COXIINrDNA (range) relative to control [1]: 1.40 (0.93-2.13) | Average ΔCt ± SD COXII DNA [1]: −0.3 ± 0.46 | Average ΔΔCt ± SD COXII-rDNA [1]: −0.49 ± 0.60 | IC50 (human PBM cells): > 100 µM
